Data from EP4603105A1, “PHARMACEUTICAL COMPOSITION CONTAINING CYCLIC COMPOUND HAVING SELECTIVE KRAS INHIBITORY EFFECT AGAINST HRAS AND NRAS” (CHUGAI SEIYAKU KABUSHIKI KAISHA, priority 2022, dated 2024).

Chains of the proteins cited; added tags and fusions are not shown.
UniProt P01112, whole entry: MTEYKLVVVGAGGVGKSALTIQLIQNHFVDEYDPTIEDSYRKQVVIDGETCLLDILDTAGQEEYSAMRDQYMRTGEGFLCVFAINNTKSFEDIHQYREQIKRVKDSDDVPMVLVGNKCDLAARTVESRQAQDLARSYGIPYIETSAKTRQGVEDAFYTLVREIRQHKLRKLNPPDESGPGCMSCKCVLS

Target: HRAS wild-type protein (Homo sapiens, UniProt P01112)
Experiment: Binding to HRAS by surface plasmon resonance (SPR), KD and KD ratio to KRAS
[1] = ratio of KD with respect to HRAS wild-type protein to KD with respect to KRAS
[2] = ratio of KD for HRAS wild-type protein to KD for KRAS

| Structure (SMILES) | HRAS /KRAS [1] | HRAS /KRAS [2] |
| --- | --- | --- |
| CCO[C@@H]1C[C@H]2C(=O)NC3(CCC3)C(=O)N(C)[C@@H](C3CCCC3)C(=O)N(C)[C@H](C(=O)N(C)C)CC(=O)N(C)[C@@H](CC(C)C)C(=O)N[C@@H]([C@@H](C)CC)C(=O)N(C)CC(=O)N(C)[C@H]3C/C=C\CCN(C3=O)[C@@H](Cc3ccc(F)cc3)C(=O)N(C)CC(=O)N[C@@H](CCc3ccc4sccc4c3)C(=O)N2C1 | B (a compound having 3 or more and less than 10 is denoted as B) |  |
| CCO[C@@H]1C[C@H]2C(=O)NC3(CCC3)C(=O)N(C)[C@@H](C3CCCC3)C(=O)N(C)[C@H](C(=O)N(C)C)CC(=O)N(C)[C@@H](CC(C)C)C(=O)N[C@@H]([C@@H](C)CC)C(=O)N(C)CC(=O)N(C)[C@H]3C/C=C\CCN(C3=O)[C@@H](Cc3ccc(F)cc3C)C(=O)N(C)CC(=O)N[C@@H](CCc3cc(F)c(Cl)c(F)c3)C(=O)N2C1 | B (a compound having 3 or more and less than 10 is denoted as B) |  |
| CCO[C@@H]1C[C@H]2C(=O)NC3(CCC3)C(=O)N(C)[C@@H](C(CC)CC)C(=O)N(C)[C@H](C(=O)N(C)C)CC(=O)N(C)[C@@H](CC(C)C)C(=O)N[C@@H]([C@@H](C)CC)C(=O)N(C)CC(=O)N(C)[C@H]3C/C=C\CCN(C3=O)[C@@H](Cc3ccc(C(F)(F)F)cc3)C(=O)N(C)CC(=O)N[C@@H](CCc3cc(F)c(Cl)c(F)c3)C(=O)N2C1 | A (a compound having 10 or more and less than 20 is denoted as A) |  |
| CCO[C@@H]1C[C@H]2C(=O)NC3(CCC3)C(=O)N(C)[C@@H](C3CCCC3)C(=O)N(C)[C@H](C(=O)N3CCCC3)CC(=O)N(C)[C@@H](CC(C)C)C(=O)N[C@@H]([C@@H](C)CC)C(=O)N(C)CC(=O)N(C)[C@H]3C/C=C\CCN(C3=O)[C@@H](Cc3ccc(C)cc3)C(=O)N(C)CC(=O)N[C@@H](CCc3cc(F)c(C(F)(F)F)c(F)c3)C(=O)N2C1 | A (a compound having 10 or more and less than 20 is denoted as A) |  |
| CCO[C@@H]1C[C@H]2C(=O)NC3(CCC3)C(=O)N(C)[C@@H](C(CC)CC)C(=O)N(C)[C@H](C(=O)N(C)C)CC(=O)N(C)[C@@H](COC)C(=O)N[C@@H]([C@@H](C)CC)C(=O)N(C)CC(=O)N(C)[C@H]3C/C=C\CCN(C3=O)[C@@H](Cc3ccc(C(F)(F)F)cc3)C(=O)N(C)CC(=O)N[C@@H](CCc3ccc(C(F)(F)F)c(OC)c3)C(=O)N2C1 | A (a compound having 10 or more and less than 20 is denoted as A) |  |
| CCO[C@@H]1C[C@H]2C(=O)NC3(CCC3)C(=O)N(C)[C@@H](C(CC)CC)C(=O)N(C)[C@H](C(=O)N(C)C)CC(=O)N(C)[C@@H](CC3CC3)C(=O)N[C@@H]([C@@H](C)CC)C(=O)N(C)CC(=O)N(C)[C@H]3C/C=C\CCN(C3=O)[C@@H](Cc3ccc(C(F)(F)F)cc3)C(=O)N(C)CC(=O)N[C@@H](CCc3ccc4sccc4c3)C(=O)N2C1 | A (a compound having 10 or more and less than 20 is denoted as A) |  |
| CCO[C@@H]1C[C@H]2C(=O)NC3(CCC3)C(=O)N(C)[C@@H](C3CCCC3)C(=O)N(C)[C@H](C(=O)N3CCOCC3)CC(=O)N(C)[C@@H](CC)C(=O)N[C@@H]([C@@H](C)CC)C(=O)N(C)CC(=O)N(C)[C@H]3CCCCCN(C3=O)[C@@H](Cc3ccc(F)cc3)C(=O)N(C)CC(=O)N[C@@H](CCc3cc(F)c(C(F)(F)F)c(F)c3)C(=O)N2C1 | B (a compound having 3 or more and less than 10 is denoted as B) |  |
| CC[C@H](C)[C@@H]1NC(=O)[C@H](CC)N(C)C(=O)C[C@@H](C(=O)N2CCOCC2)N(C)C(=O)[C@H](C2CCCC2)N(C)C(=O)C2(CCC2)NC(=O)[C@@H]2CCCN2C(=O)[C@H](CCc2cc(F)c(C(F)(F)F)c(F)c2)NC(=O)CN(C)C(=O)[C@H](Cc2ccc(C(F)(F)F)cc2)N2C[C@H](C)CC[C@@H](C2=O)N(C)C(=O)CN(C)C1=O | B (a compound having 3 or more and less than 10 is denoted as B) |  |
| CC[C@H](C)[C@@H]1NC(=O)[C@H](COC)N(C)C(=O)C[C@@H](C(=O)N(CC)CC)N(C)C(=O)[C@H](C2CCCC2)N(C)C(=O)C2(CC(C)(C)C2)NC(=O)[C@@H]2C[C@H](C)CN2C(=O)[C@H](CCc2ccc(C(F)(F)F)c(OC)c2)NC(=O)CN(C)C(=O)[C@H](Cc2ccc(C)cc2)N2CC/C=C\C[C@@H](C2=O)N(C)C(=O)CN(C)C1=O |  | A (a compound having 10 or more and less than 20 is denoted as A) |
| CCO[C@@H]1C[C@H]2C(=O)NC3(CCC3)C(=O)N(C)[C@@H](C3CCCC3)C(=O)N(C)[C@H](C(=O)N(C)C)CC(=O)N(C)[C@@H](CC3CC3)C(=O)N[C@@H]([C@@H](C)CC)C(=O)N(C)CC(=O)N(C)[C@H]3C/C=C\CCN(C3=O)[C@@H](Cc3ccc(F)cc3C)C(=O)N(C)CC(=O)N[C@@H](CCc3cc(F)c(Cl)c(F)c3)C(=O)N2C1 | B (a compound having 3 or more and less than 10 is denoted as B) |  |
| CCO[C@@H]1C[C@H]2C(=O)NC3(CC(C)(C)C3)C(=O)N(C)[C@@H](C(CC)CC)C(=O)N(C)[C@H](C(=O)N(C)C)CC(=O)N(C)[C@@H](COC)C(=O)N[C@@H]([C@@H](C)CC)C(=O)N(C)CC(=O)N(C)[C@H]3C/C=C\CCN(C3=O)[C@@H](CC3CCCCC3)C(=O)N(C)CC(=O)N[C@@H](CCc3cc(F)c(C(F)(F)F)c(F)c3)C(=O)N2C1 |  | A (a compound having 10 or more and less than 20 is denoted as A) |
| CCO[C@@H]1C[C@H]2C(=O)NC3(CCC3)C(=O)N(C)[C@@H](C3CCCC3)C(=O)N(C)[C@H](C(=O)N(C)C)CC(=O)N(C)[C@@H](CC3CCCC3)C(=O)N[C@@H]([C@@H](C)CC)C(=O)N(C)CC(=O)N(C)[C@H]3C/C=C\CCN(C3=O)[C@@H](Cc3ccc(C)cc3)C(=O)N(C)CC(=O)N[C@@H](CCc3cc(F)c(Cl)c(F)c3)C(=O)N2C1 | A (a compound having 10 or more and less than 20 is denoted as A) |  |
| CC[C@H](C)[C@@H]1NC(=O)[C@H](CC2CC2)N(C)C(=O)C[C@@H](C(=O)N(C)C)N(C)C(=O)[C@H](C2CCCC2)N(C)C(=O)C2(CCC2)NC(=O)[C@H](CC(F)F)N(C)C(=O)[C@H](CCc2cc(F)c(C(F)(F)F)c(F)c2)NC(=O)CN(C)C(=O)[C@H](Cc2ccc(C(F)(F)F)cc2)N2CC/C=C\C[C@@H](C2=O)N(C)C(=O)CN(C)C1=O | A (a compound having 10 or more and less than 20 is denoted as A) |  |
| CCCOCC1C(=O)NC(C(C)OCC)C(=O)N(C)CC(=O)N(C)C2CC=CCCN(C2=O)C(Cc2ccc(C)cc2)C(=O)N(C)CC(=O)NC(CCc2cc(F)c(C(F)(F)F)c(F)c2)C(=O)N2CC(C)CC2C(=O)NC2(CC(C)(C)C2)C(=O)N(C)C(C2CCCC2)C(=O)N(C)C(C(=O)N(C)CC)CC(=O)N1C (stereo not shown) |  | A (a compound having 10 or more and less than 20 is denoted as A) |
| CCCN1CC(=O)NC2(CCC2)C(=O)N(C)[C@@H](C2CCCC2)C(=O)N(C)[C@H](C(=O)N(C)C)CC(=O)N(C)[C@@H](CC)C(=O)N[C@@H]([C@@H](C)CC)C(=O)N(C)CC(=O)N(C)[C@H]2C/C=C\CCN(C2=O)[C@@H](Cc2ccc(C(F)(F)F)cc2)C(=O)N(C)CC(=O)N[C@@H](CCc2cc(F)c(C(F)(F)F)c(F)c2)C1=O | A (a compound having 10 or more and less than 20 is denoted as A) |  |
| CCO[C@@H]1C[C@H]2C(=O)NC3(CCC3)C(=O)N(C)[C@@H](C3CCCC3)C(=O)N(C)[C@H](C(=O)N(C)C)CC(=O)N(C)[C@@H](CC3CC3)C(=O)N[C@@H]([C@@H](C)CC)C(=O)N(C)CC(=O)N(C)[C@H]3C/C=C\CCN(C3=O)[C@@H](Cc3ccc(F)cc3)C(=O)N(C)CC(=O)N[C@@H](CCc3ccc(Cl)c(Cl)c3)C(=O)N2C1 | A (a compound having 10 or more and less than 20 is denoted as A) |  |
